Results from patent US12180215B2, “Substituted pyrrolo[3,4-d]imidazoles as JAK inhibitors” (HENAN MEDINNO PHARMACEUTICAL TECHNOLOGY CO., LTD., priority 2019, dated 2024).

Key:
TYK2 [1] = target: TYK2 (Homo sapiens, UniProt P29597); test: TYK2 kinase ADP-Glo assay (Example 59); type: biochemical; set-up: purchased Invitrogen PV4790
TYK2 [2] = target: T1, TYK2 (Homo sapiens, UniProt P29597); test: TYK2 kinase ADP-Glo assay (Example 60); conditions: IC50 (nM), TYK2 Experiment, Example 60, second series (MDI-237 to MDI-263); TYK2 (Carna) 10 nM, ATP 10 μM, IRS1 0.02 mg/mL
T1 sequence (P29597 871-1187 limits assumed): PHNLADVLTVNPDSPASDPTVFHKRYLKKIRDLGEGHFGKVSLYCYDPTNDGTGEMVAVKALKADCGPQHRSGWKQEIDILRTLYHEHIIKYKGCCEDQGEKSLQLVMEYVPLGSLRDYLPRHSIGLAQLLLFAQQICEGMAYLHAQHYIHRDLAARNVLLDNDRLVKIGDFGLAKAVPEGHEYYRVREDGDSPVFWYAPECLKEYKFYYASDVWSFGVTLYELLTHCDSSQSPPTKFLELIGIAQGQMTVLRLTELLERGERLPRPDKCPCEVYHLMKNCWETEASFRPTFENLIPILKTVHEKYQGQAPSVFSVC

O=C(Nc1nc2cccc(-c3ccc(CN4CCS(=O)(=O)CC4)cc3)n2n1)C1CC1 [reference compound]
IC50 (TYK2 [1]): 128 nM | IC50 (TYK2 [2]): 233 nM
